Laboratory results as given in patent publication US12391685B2, “Inhibitors of RNA-guided nuclease target binding and uses thereof” (THE BROAD INSTITUTE, INC., priority 2018, dated 2025).

Chains of the proteins cited; added tags and fusions are not shown. Lines headed by an entry give the natural chain unless they say otherwise; changes in a name come on top.
UniProt P14739: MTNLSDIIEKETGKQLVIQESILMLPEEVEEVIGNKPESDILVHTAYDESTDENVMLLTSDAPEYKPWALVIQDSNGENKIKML
UniProt P38483: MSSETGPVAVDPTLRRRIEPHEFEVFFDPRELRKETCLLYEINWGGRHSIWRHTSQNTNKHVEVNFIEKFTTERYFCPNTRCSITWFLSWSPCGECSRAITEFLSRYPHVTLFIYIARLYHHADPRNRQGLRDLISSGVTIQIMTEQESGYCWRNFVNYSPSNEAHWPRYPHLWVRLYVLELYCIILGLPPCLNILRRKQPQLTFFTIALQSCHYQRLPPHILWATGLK
UniProt Q99ZW2: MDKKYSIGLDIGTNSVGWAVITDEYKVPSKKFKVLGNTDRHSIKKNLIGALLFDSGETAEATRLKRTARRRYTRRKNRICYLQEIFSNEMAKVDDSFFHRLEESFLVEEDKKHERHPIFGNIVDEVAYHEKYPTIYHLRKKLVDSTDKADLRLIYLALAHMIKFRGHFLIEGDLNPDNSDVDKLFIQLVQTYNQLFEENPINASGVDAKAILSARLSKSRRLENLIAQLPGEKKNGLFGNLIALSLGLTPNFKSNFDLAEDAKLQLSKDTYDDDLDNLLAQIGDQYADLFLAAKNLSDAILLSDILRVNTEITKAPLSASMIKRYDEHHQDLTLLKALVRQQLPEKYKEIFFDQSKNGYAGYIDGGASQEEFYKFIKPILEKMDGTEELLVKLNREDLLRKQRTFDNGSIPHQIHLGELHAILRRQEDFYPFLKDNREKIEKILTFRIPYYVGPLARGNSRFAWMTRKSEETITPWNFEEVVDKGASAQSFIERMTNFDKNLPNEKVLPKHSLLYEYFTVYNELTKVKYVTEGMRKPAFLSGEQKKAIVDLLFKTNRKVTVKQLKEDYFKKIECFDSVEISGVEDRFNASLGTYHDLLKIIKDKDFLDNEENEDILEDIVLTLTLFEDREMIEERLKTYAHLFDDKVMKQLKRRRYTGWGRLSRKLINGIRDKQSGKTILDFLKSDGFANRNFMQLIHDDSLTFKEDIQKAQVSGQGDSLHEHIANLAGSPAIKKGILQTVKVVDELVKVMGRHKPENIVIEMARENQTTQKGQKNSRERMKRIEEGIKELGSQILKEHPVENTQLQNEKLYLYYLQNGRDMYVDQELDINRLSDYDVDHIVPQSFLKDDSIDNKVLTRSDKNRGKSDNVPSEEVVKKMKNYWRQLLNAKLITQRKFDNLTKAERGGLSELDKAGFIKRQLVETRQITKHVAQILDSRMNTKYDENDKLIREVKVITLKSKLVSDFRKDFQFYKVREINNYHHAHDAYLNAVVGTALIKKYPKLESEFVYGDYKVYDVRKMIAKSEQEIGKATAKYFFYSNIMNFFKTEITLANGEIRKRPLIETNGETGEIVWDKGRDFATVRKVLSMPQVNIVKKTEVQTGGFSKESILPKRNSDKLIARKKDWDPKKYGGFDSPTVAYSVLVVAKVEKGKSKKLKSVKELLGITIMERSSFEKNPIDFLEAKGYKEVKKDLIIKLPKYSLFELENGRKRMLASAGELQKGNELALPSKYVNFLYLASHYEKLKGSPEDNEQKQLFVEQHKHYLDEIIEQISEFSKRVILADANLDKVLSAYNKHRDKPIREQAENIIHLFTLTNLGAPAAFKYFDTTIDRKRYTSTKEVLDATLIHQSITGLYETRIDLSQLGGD

Biological target: T1, SpCas9 (A840H)-cytidine deaminase conjugate (BE3) (UniProt P14739+P38483+Q99ZW2, D10A)
T1 construct: His6 (N); made in house; host or cells: BL21 Star (DE3) E. coli; the protein:sgRNA complex was lipofected into HEK293T cells
Assay: Base editing of EMX1 gene by BE3 in HEK293T cells
Assay type: cell-based
Conditions: 20 μM, 72 h
Protocol: Analysis of base-edited sequences. Nucleotide frequencies were analyzed using a previously described MATLAB script (Komor et al., 2016b). Briefly, the reads were aligned to the reference sequence via the Smith-Waterman algorithm. Base calls with Q-scores below 30 were replaced with a placeholder nucleotide (N). This quality threshold results in nucleotide frequencies with an expected theoretical error rate of 1 in 1,000. To distinguish small molecule-induced inhibition of C→T editing from artefactual C→T editing, Applicants compared the sequencing reads from cells treated with base-editor in the presence of small molecule to the sequencing reads from base-edited cells not exposed to small molecule. A Student's two-tailed t-test was used to determine if inhibition of C→T editing by small-molecule is statistically significant with P<0.05 as the threshold.
Protein transfection of base editor BE3 into HEK293T cells. […]
Purifications and sequencing of genomic DNA. […] Barcoded samples were pooled and purified by gel extraction (Qiagen) before quantification using the Qubit dsDNA HS Kit (Thermo Fisher) and qPCR (KAPA BioSystems) according to the manufacturer's instructions. Sequencing of pooled samples was performed using a single-end read from 260 to 300 bases (MiSeq, Illumina) according to the manufacturer's instructions.

| Structure (SMILES) | reduction in C→T conversion |
| --- | --- |
| COc1ccc(-c2ccc3c(c2)[C@H]2[C@H](CCN2Cc2ccncc2)[C@@H](CO)N3)cc1 [BRD5779, ((3aR,4S,9bR)-8-(4-Methoxyphenyl)-1-(pyridin-4-ylmethyl)-2,3,3a,4,5,9b-hexahydro-1H-pyrrolo[3,2-c]quinolin-4-yl) methanol] | two-fold |
| OC[C@H]1Nc2ccc(-c3cccc(F)c3)cc2[C@H]2[C@@H]1CCN2Cc1ccncc1 [BRD7087, ((3aR,4S,9bR)-8-(3-Fluorophenyl)-1-(pyridin-4-ylmethyl)-2,3,3a,4,5,9b-hexahydro-1H-pyrrolo[3,2-c]quinolin-4-yl) methanol] | two-fold |
